Measured values taken from patent US8609708B2 (Human BioMolecular Research Institute, priority 2003, dated 2013).

By UniProt entry, the sequences of proteins in these tests, tags left out. Where a name states a change or a piece, a line headed by the entry shows the natural chain unless it says otherwise.
UniProt P08684, whole entry: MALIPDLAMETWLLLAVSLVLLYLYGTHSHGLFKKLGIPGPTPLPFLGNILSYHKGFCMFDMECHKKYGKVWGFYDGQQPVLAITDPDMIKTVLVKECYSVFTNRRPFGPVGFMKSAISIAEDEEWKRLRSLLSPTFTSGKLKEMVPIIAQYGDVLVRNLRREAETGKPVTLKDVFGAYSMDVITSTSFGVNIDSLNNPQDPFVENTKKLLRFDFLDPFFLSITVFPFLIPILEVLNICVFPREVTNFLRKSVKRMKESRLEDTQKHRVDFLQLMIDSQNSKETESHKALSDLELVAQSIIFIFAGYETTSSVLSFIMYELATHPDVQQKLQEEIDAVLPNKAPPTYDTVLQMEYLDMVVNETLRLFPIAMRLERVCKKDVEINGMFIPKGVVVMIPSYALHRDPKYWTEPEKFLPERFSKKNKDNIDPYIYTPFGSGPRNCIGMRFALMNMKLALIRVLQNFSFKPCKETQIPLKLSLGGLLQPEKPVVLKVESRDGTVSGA
UniProt P20813: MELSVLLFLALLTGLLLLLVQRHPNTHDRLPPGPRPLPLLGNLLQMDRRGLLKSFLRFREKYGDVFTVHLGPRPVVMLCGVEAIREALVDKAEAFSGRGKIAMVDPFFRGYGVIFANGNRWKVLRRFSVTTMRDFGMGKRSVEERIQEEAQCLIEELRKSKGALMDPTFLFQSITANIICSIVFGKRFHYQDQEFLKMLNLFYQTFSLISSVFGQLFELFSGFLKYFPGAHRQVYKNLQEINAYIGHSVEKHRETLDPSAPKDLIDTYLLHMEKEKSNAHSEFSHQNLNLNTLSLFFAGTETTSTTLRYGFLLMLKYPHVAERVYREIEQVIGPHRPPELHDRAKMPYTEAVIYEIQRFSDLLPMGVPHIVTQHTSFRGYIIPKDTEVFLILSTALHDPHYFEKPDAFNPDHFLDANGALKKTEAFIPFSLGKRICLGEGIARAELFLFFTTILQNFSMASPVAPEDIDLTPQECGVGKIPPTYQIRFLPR
UniProt P11509: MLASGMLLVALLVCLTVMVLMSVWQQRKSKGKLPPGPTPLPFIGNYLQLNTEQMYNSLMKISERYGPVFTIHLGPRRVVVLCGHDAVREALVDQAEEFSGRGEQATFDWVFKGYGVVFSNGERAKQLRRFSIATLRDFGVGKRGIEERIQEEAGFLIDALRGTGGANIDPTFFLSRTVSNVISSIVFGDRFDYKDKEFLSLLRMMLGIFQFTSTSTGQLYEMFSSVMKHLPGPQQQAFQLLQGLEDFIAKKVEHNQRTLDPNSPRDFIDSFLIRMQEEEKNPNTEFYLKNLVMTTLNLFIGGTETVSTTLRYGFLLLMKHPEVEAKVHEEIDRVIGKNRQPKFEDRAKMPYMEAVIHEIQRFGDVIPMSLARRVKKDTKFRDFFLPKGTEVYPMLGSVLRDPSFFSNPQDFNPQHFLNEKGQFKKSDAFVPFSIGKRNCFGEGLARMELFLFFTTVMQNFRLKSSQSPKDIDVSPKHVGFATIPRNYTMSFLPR
UniProt P05181: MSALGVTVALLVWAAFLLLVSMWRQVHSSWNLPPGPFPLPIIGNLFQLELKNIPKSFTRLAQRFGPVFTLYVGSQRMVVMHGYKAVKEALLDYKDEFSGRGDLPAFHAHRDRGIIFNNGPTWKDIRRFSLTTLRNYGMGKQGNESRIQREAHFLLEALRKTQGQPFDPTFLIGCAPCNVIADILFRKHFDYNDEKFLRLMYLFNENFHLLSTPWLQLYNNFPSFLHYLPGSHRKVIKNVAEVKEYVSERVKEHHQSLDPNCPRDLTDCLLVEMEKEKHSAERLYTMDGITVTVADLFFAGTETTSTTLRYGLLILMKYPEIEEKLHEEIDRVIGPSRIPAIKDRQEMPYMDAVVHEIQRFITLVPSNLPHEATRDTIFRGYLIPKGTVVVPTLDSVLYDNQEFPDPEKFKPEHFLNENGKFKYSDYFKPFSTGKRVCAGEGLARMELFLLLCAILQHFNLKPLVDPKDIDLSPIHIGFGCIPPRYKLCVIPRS
UniProt P11712, whole entry: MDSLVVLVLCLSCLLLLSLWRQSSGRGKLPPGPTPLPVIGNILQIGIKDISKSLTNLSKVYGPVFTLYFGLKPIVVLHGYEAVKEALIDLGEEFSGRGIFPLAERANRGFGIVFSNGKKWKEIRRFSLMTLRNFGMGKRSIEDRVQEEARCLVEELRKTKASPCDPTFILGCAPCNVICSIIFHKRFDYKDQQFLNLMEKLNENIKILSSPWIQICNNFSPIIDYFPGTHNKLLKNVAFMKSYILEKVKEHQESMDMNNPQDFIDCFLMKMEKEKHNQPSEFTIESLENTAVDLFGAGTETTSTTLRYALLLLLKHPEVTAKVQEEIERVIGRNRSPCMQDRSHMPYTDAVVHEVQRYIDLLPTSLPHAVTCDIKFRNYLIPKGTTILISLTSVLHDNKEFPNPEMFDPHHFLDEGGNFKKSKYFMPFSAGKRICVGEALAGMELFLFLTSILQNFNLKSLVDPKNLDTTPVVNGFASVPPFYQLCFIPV
UniProt P33261, whole entry: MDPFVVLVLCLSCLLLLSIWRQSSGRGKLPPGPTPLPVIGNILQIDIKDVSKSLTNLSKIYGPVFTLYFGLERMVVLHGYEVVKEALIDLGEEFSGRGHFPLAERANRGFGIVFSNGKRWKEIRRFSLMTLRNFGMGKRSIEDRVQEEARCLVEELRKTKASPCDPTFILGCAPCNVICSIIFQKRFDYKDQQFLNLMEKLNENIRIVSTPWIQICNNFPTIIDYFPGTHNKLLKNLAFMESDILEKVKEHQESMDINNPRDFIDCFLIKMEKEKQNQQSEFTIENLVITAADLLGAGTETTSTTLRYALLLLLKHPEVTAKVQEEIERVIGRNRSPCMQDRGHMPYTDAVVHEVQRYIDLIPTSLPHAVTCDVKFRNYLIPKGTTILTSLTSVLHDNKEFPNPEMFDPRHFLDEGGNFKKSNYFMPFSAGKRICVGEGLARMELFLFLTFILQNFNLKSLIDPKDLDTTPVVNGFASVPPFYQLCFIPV
UniProt P10635, whole entry: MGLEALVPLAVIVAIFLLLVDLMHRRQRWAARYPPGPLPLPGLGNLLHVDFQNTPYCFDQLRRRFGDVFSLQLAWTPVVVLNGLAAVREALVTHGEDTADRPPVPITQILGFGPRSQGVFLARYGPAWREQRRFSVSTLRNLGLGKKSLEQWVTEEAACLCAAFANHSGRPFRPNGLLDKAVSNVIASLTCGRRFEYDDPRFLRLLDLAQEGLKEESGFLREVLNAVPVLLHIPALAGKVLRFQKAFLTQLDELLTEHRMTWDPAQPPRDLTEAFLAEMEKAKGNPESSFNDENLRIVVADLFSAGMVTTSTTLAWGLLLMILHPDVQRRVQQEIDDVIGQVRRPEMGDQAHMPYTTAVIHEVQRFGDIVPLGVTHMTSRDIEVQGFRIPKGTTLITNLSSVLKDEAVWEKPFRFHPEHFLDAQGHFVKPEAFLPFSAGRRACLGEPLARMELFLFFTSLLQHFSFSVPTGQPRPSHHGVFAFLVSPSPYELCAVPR

How the values were obtained:
[1] = target: CYP3A4 (Homo sapiens (Human), UniProt P08684); assay: in vitro; conditions: pH 7.5
Experimental: (§1) To gain insight into the selectivity of the synthetic compounds, nicotine, nicotine related alkaloids and nicotine metabolites for inhibition of other CYPs, we examined the major CYP present in human liver (i.e., CYP 3A4). […] A typical incubation mixture ([…] ), 0.5 mM NADP^+, 2.0 mM G6P, 1 U of G6P dehydrogenase, […] inhibitor was added last as to minimize interaction with the protein. After mixing on ice, the reaction was initiated by the addition of substrate and incubated at 37° C. with shaking in air. Organic extracts were injected onto a Hitachi L-7100 system equipped with a Hitachi L-7400 UV detector. Separations were done with an Altex Ultrasphere ODS (4.6 mm×250 mm, 5 μm) column. The analytes were eluted with an isocratic solvent system consisting of water/acetonitrile/methanol (30:10:60, v/v/v) at a flow rate of 1.0 mL/min. […] Quantification of substrate and metabolite was determined from peak areas of the chromatogram and comparison with standard curves. IC50 values were determined as described below.
(§2) To measure CYP3A4 activity, testosterone 6-hydroxylation was determined.

[2] = target: CYP3A4 relative to CYP2A6 (Homo sapiens (Human), UniProt P08684); assay: in vitro
Experimental: as §1, §2

[3] = target: CYP2B6 (Homo sapiens (Human), UniProt P20813); assay: CYP2B6 Vivid blue substrate O-dealkylation inhibition; format: biochemical
[4] = target: T1, human CYP2A6 (Homo sapiens (Human), UniProt P11509)
[5] = target: T1, human CYP2A6; assay: CYP2A6 mediated coumarin 7-hydroxylation inhibition
[6] = target: CYP2E1 relative to CYP2A6 (Homo sapiens (Human), UniProt P05181); assay: CYP2E1 Vivid blue substrate O-dealkylation inhibition; format: biochemical; conditions: human CYP2E1 versus human CYP2A6, read-out: Selectivity ratio (IC50 CYPX/IC50 CYP2A6) 2E1/2A6
[7] = target: CYP2B6 relative to CYP2A6 (Homo sapiens (Human), UniProt P20813); assay: CYP2B6 Vivid blue substrate O-dealkylation inhibition; format: biochemical; conditions: human CYP2B6 versus human CYP2A6, read-out: Selectivity ratio (IC50 CYPX/IC50 CYP2A6) 2B6/2A6
[8] = target: CYP2C9 relative to CYP2A6 (Homo sapiens (Human), UniProt P11712); assay: CYP2C9 Vivid blue substrate O-dealkylation inhibition; format: biochemical
[9] = target: CYP2C19 relative to CYP2A6 (Homo sapiens (Human), UniProt P33261); assay: CYP2C19 Vivid blue substrate O-dealkylation inhibition; format: biochemical
[10] = target: CYP2D6 relative to CYP2A6 (Homo sapiens (Human), UniProt P10635); assay: CYP2D6 Vivid blue substrate O-dealkylation inhibition; format: biochemical
[11] = pH 7.5, Selectivity Ratio: IC50 (Inhibition of CYP3A4)/IC50 (Inhibition of CYP2A6)
[12] = pH 7.5, Selectivity ratio (IC50 CYPX/IC50 CYP2A6) 3A4/2A6

Cc1cscc1-c1cccnc1 [Compound 17]
Selectivity ratio (IC50 CYPX/IC50 CYP2A6) 3A4/2A6 [1]: 20
selectivity ratio [2, 11]: < 13

O/N=C\c1ccc(-c2cccnc2)o1 [Compound 72]
selectivity ratio [2, 11]: 5

O/N=C/c1ccc(-c2cccnc2)o1 [Compound 39]
selectivity ratio [2, 11]: 41

NCc1ccc(-c2cccnc2)s1 [Compound 38a, (5-(Pyridin-3-yl)thiophen-2-yl)methanamine]
IC50 ([3]; insect cell microsomes expressing CYP2B6, 0.2M potassium phosphate buffer, mean of at least 3 determinations ± SD, read-out: IC50 ± SD 2B6): 52.2 ± 7.6 µM
IC50 ([4]; human, pH 7.5): 170 ± 20 nM
Ki ([4]; human, pH 7.5): 20 ± 3 nM

3-(Pyridin-3-yl)pyridine [Compound 31]
IC50 ([4]; human, pH 7.5): 7440 ± 1320 nM

CN(C)Cc1ccc(-c2cccnc2)o1 [Compound 2c]
IC50 ([5]; read-out: 2A6 IC50 ± SD, Table 4, unit not given (same data in Table 1 in μM)): 28.3 ± 18.3 µM

c1cncc(-c2cccnc2)c1 [Compound 30]
selectivity ratio [2, 11]: > 61

c1cncc(-c2cccnc2)c1 [Compound 31, 3-(Pyridin-3-yl)pyridine]
selectivity ratio [2, 12]: 10
selectivity ratio at 40 min ([6]; pH 8): 45
selectivity ratio at 40 min ([7]; pH 8): 22
selectivity ratio at 40 min ([8]; pH 8, human CYP2C9 versus human CYP2A6, read-out: Selectivity ratio (IC50 CYPX/IC50 CYP2A6) 2C9/2A6): > 45
selectivity ratio at 40 min ([9]; pH 8, human CYP2C19 versus human CYP2A6, read-out: Selectivity ratio (IC50 CYPX/IC50 CYP2A6) 2C19/2A6): > 45
selectivity ratio at 40 min ([10]; pH 8, human CYP2D6 versus human CYP2A6, read-out: Selectivity ratio (IC50 CYPX/IC50 CYP2A6) 2D6/2A6): > 45

NCc1ccc(-c2cccnc2)s1 [Compound 1]
IC50 ([4]; human, pH 7.5): 172 ± 17 nM

Cc1cscc1-c1ccc(F)nc1 [Compound 21, 2-Fluoro-5-(4-methylthiophen-3-yl)pyridine]
selectivity ratio [2, 12]: 2
selectivity ratio at 40 min ([6]; recombinant CYP2E1 BACULOSOMES, pH 8, probe Vivid blue substrate (10 μM), O-dealkylation): 284
selectivity ratio at 40 min ([7]; recombinant CYP2B6 BACULOSOMES, pH 8, probe Vivid blue substrate (5 μM), O-dealkylation): 9.1
selectivity ratio at 40 min ([8]; recombinant CYP2C9 BACULOSOMES, pH 8, probe Vivid blue substrate (10 μM), O-dealkylation, human CYP2C9 versus human CYP2A6, read-out: Selectivity ratio (IC50 CYPX/IC50 CYP2A6) 2C9/2A6): > 308
selectivity ratio at 40 min ([9]; recombinant CYP2C19 BACULOSOMES, pH 8, probe Vivid blue substrate (10 μM), O-dealkylation, human CYP2C19 versus human CYP2A6, read-out: Selectivity ratio (IC50 CYPX/IC50 CYP2A6) 2C19/2A6): 32
selectivity ratio at 40 min ([10]; recombinant CYP2D6 BACULOSOMES, pH 8, probe Vivid blue substrate (10 μM), O-dealkylation, human CYP2D6 versus human CYP2A6, read-out: Selectivity ratio (IC50 CYPX/IC50 CYP2A6) 2D6/2A6): 227

NCc1ccc(-c2cccnc2)s1 [Compound 1a]
IC50 ([3]; Table 4, unit inferred, read-out: 2B6 IC50 ± SD): 52.2 ± 7.6 µM
IC50 [4]: 170 ± 20 nM

OCc1ccc(-c2cccnc2)o1 [Compound 81]
IC50 ([5]; read-out: CYP2A6 IC50, coumarin 7-hydroxylation): 211 ± 100 µM

Read-outs that look alike come from different tables or passages of the source.
